Measured values: PubChem BioAssay AID449723 (Johns Hopkins Ion Channel Center, 2010)
The entries are a selection whose mix differs from that of the whole data set. Active and inactive are the calls of the source.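 Rule for the calls: active = hit in primary screen, with calcium signal over 5 SD above buffer well mean in both duplicates; inactive = the rest.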

Assay: nonspecific calcium rise without TRPC4 – cell-based, HEK293 mu-opioid receptor line, counter-screen for TRPC4 activator project, confirmation (AID 449723);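 note: counter screen cells carry the mu-opioid receptor alone and lack TRPC4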
Conditions: HEK293 mu-opioid cells, Fluo-4 calcium fluorescence; at 10 µM

Row | Structure (SMILES) | outcome
1 | CCN(CC)CCCOC(=O)C(O)(c1ccccc1)c1ccccc1 | inactive
2 | CN(C)C1(CNC(=O)c2ccc(Cl)c(S(N)(=O)=O)c2)CCCCC1 | inactive
3 | CN(C)CCOC(=O)C(O)(c1ccccc1)C1CCCC1 (stereo not drawn) | inactive
